PubChem BioAssay AID1530 (NMMLSC, 2009)
The list shows a part of the results, in another mix than the full data. Some salts and complexes are drawn in separate pieces, as the source files them; their charges need not balance. The source made the active and inactive calls. Cut-off read from the data, not from the text of the source: active = percent response above about 24% (passing the limit was not always enough); inactive = the rest.

test system: MEKK2 (MAP3K2) mutant PB1 domain binding to MEK5, human; experiment: MEK5 binding signal on mutant MEKK2 PB1, primary screen, biochemical, multiplex bead flow cytometry, Alexa488-MEK5 (AID 1530); details: at 10 µM, hits give high values

Compound | percent response
COc1ccccc1OP(C)(=O)Nc1ccc(C)c(C)c1 (stereo unspecified) | inactive: 0%
Cc1cc(C)cc(OP(C)(=O)Nc2cccc(C(F)(F)F)c2)c1 (stereo unspecified) | inactive: -6%
CP(=O)(Nc1ccc(Cl)cc1Cl)Oc1ccccc1 (stereo unspecified) | inactive: -3%
CP(=O)(OCCOc1ccccc1)OCCOc1ccccc1 | inactive: 4%
Cc1nc2ccc3ccccc3c2o1.O=[N+]([O-])c1cc([N+](=O)[O-])c(O)c([N+](=O)[O-])c1 | inactive: -3%
COc1ccc(OP(C)(=O)Nc2ccc(SC(F)(F)F)cc2)cc1 (stereo unspecified) | inactive: -11%
CCOC(=O)c1ccc(NP(C)(=O)Oc2ccc(F)cc2)cc1 (stereo unspecified) | inactive: -2%
CCCCCOc1ccc(NP(C)(=O)Oc2ccc(Cl)cc2Cl)cc1 (stereo unspecified) | inactive: 12%
O=[N+]([O-])c1cc([N+](=O)[O-])c(OC2CCCCC2O)c([N+](=O)[O-])c1 (stereo unspecified) | inactive: 9%
CP(=O)(Nc1ccccc1)Oc1ccc(F)cc1 (stereo unspecified) | inactive: -1%
CCN(CC)CCCOC(=O)C(O)(c1ccccc1)C1CCCCC1 (stereo unspecified) | inactive: 6%
CC(C)c1ccc(OP(C)(=O)Nc2ccc(SC(F)(F)F)cc2)cc1 (stereo unspecified) | inactive: -3%
CP(=O)(Nc1ccccc1F)Oc1ccccc1 (stereo unspecified) | inactive: 8%
COc1ccc2c(c1O)-c1c(O)c(OC)cc3c1[C@H](C2)[N+](C)(C)CC3.O=[N+]([O-])c1cc([N+](=O)[O-])c([O-])c([N+](=O)[O-])c1[O-] | inactive: 3%
O=C(OCCN1CCN(CCOCc2ccccc2)CC1)C(O)(c1ccccc1)c1ccccc1 | inactive: -3%
O=C(OC1CN2CCC1CC2)c1ccc([N+](=O)[O-])cc1 (stereo unspecified) | inactive: 5%
CCOP(C)(=S)SCC(=O)NC(C)(CC)C(=O)O (stereo unspecified) | inactive: 3%
CP(=O)(Nc1ccc(SC(F)(F)F)cc1)Oc1ccc(F)cc1 (stereo unspecified) | inactive: -23%
Cc1ccccc1NP(C)(=O)Nc1ccccc1C | inactive: 10%
CP(=O)(Nc1ccc2c(c1)OCCO2)Oc1ccccc1 (stereo unspecified) | inactive: 8%
COc1ccc(NP(C)(=O)Oc2ccccc2OC)cc1 (stereo unspecified) | inactive: 13%
CN(C)CCOC(=O)C(O)(c1ccccc1)C1CCCCC1 (stereo unspecified) | inactive: -5%
COc1ccc(OP(C)(=O)Nc2cccc(Br)c2)cc1 (stereo unspecified) | inactive: -1%
Cc1cc(-c2cccc3ccccc23)c(C)cn1.O=[N+]([O-])c1cc([N+](=O)[O-])c(O)c([N+](=O)[O-])c1 | inactive: -3%
O=[N+]([O-])c1cc([N+](=O)[O-])c(NCC2CCS(=O)(=O)C2)c([N+](=O)[O-])c1 (stereo unspecified) | inactive: -1%
O=[N+]([O-])c1ccc(OP2(=O)COCCO2)cc1 (stereo unspecified) | inactive: 8%
